# Wnt bcat act: Wnt/beta-catenin pathway activation | 300,000 tested, 1.2% active | Wnt/beta-catenin reporter cell assay, activator, plate reader | activation, % at 9.35 µM; in the data active = activation above about 30%, passing the limit was not always enough; inconclusive = no clear call, values can overlap the other calls;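 also: 0% = neutral control wells and 100% = positive control wells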
# esBAF inh: inhibitors of esBAF chromatin remodeling in mouse ES cells | Bmi1-luciferase knock-in reporter, 24 h; 100% = twice the neutral-well signal | reporter increase, % at 12.5 µM | 350,000 tested, 2% active | AID 602393; in the data active = activation above about 40%; inconclusive = no clear call, values can overlap the other calls;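 also: 0% = median of the plate's neutral control wells and 100% = double that signal; a rise in the Bmi1 reporter signal indicates esBAF inhibition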
# UUG fidelity: modulators of yeast start codon fidelity, primary screen, whole organism, S. cerevisiae, single point, plate reader; S. cerevisiae UUG-firefly luciferase reporter, luminescence/redox ratio; activity score, % at 18.7 µM; actives 0.13% (n = 350,000); AID 602363, 2012;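 active = replicate mean at a twofold rise or more, about +100% in these data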;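 also: firefly luciferase made from a UUG start codon reports start codon fidelity; reporter light over untreated wells divided by growth signal over untreated wells; some hits fall short of that in this replicate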
# PglD inh: PglD (C. jejuni) enzyme inhibition. purified PglD enzyme, DTNB colorimetric CoA detection. inhibition, % at 12.5 µM. 360,000 tested, 0.098% active; in the data active = inhibition above about 16%, passing the limit was not always enough; inconclusive = no clear call, values can overlap the other calls
# miR-122 sensor: blocks miR-122 activity in Huh7 sensor cells. Huh7 miR-122 Renilla luciferase sensor, 48 h; neutral wells = 0, positive control = 100. activation (reporter increase), % at 12.5 µM. 340,000 tested, 0.3% active. AID 602342;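 active = mean replicate activation score at least 90 and every replicate individually at or above 90; inconclusive = only one of the two criteria met; inactive = neither criterion met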;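 also: higher luciferase means less miR-122 activity so hits act as miR-122 inhibitors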
# MITF act: increases MITF-driven TRPM1 promoter luciferase signal | 300,000 tested, 0.75% active | SK-MEL-5 TRPM1-promoter luciferase, 24 h; % of positive control, neutral wells = 0 | activation, % at 12.5 µM;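 active = mean activation of at least 80% with every replicate also reaching 80%; inconclusive = mean reaches 80% but some replicate falls short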;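 also: 0% = neutral control wells and 100% = parthenolide positive control wells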
# The depositor's hits bear a star; ? = inconclusive; . = no result given; [ ] = remark or other dose. This is a sample that favours compounds with a hit; in the whole collection about 2.8% have one here.
Structure | Wnt bcat act | esBAF inh | UUG fidelity | PglD inh | miR-122 sensor | MITF act
C[C@@H]1CN([C@H](C)CO)C(=O)c2cc(NC(=O)CCCN(C)C)ccc2O[C@@H](C)CCCCO[C@H]1CN(C)C(=O)Nc1ccc(F)cc1 | . | 9.1 | -10.6 | -1.0 | 0.0[16.7 µM] | .
N#Cc1cc2c(nc1SCC1COc3ccccc3O1)CCC2 (stereo not drawn) | . | . | . | . | -1.4 | 110.5*
CC1CCC(=O)N(CCSc2ccccc2)CC1 (stereo not drawn) | 32.8* | -14.4 | -24.9 | 4.0 | -9.0 | 87.4*
COc1ccc(SCCN2CC[C@@H](C)CCC2=O)cc1 | 4.4 | 36.3 | -14.1 | -0.4 | -6.9 | 58.0
[O-][n+]1c2ccccc2c2n1CCN1CCOC21c1ccc(Cl)cc1 (stereo not drawn) | ? | 60.1* | -10.9 | 1.2 | . | 3.6
N#Cc1ccc(C23OCCN2CCn2nc4ccccc4c23)cc1 (stereo not drawn) | -2.0 | 2.6 | -7.1 | 4.2 | 7.7 | -22.2
COC(=O)c1ccc2nc(-c3cccc(Cl)c3)c(Cc3ccsc3)n2c1 | 15.0 | 55.2* | -17.4 | -2.8 | 3.0 | .
Cc1ccc2nc(-c3cccc(Br)c3)c(Cc3ccccn3)n2c1 | 23.9 | 48.0* | -4.2 | -3.2 | -4.6 | .
Clc1ccc(-c2nc3ccc(Cl)cn3c2Cc2ccsc2)cc1 | 19.5 | 71.0* | -8.6 | 1.3 | 4.4 | .
Clc1ccc(-c2nc3ccc(Br)cn3c2Cc2cccc(Cl)c2)cc1 | 13.3 | ? | -11.3 | 3.4 | 7.1 | .
Cc1ccc(-c2nc3ccc(Br)cn3c2Cc2cccc(Cl)c2)cc1 | 11.5 | 43.4* | -18.1 | 1.8 | -1.7 | .
Clc1ccc2nc(-c3ccccc3)c(Cc3ccsc3)n2c1 | . | ? | -15.2 | 3.0 | -4.5 | .
C[C@@H]1CN([C@H](C)CO)C(=O)c2cc(-c3ccc(C#N)cc3)cnc2O[C@@H]1CN(C)C(=O)c1cccnc1 | . | -7.3 | 9.4 | 0.1 | . | .
CO[C@@H]1CN(C)C(=O)c2cc(NC(=O)NC(C)C)ccc2OC[C@@H](C)N(C(=O)CC2CC2)C[C@@H]1C | . | 1.3 | 2.1 | 0.3 | -4.2[16.7 µM] | .
COc1ccc(CN(C)C[C@@H]2Oc3c(NS(=O)(=O)c4cn(C)cn4)cccc3C(=O)N([C@H](C)CO)C[C@@H]2C)cc1 | . | -2.1 | -9.0 | 1.4 | -1.5[16.7 µM] | .
C[C@@H]1CN([C@H](C)CO)C(=O)c2cc(-c3ccccc3F)cnc2O[C@@H]1CN(C)C | . | 1.8 | -18.5 | 4.2 | -5.3[16.7 µM] | .
C[C@H](CO)N1C[C@H](C)[C@@H](CN(C)S(=O)(=O)c2ccccc2)Oc2ccc(NC(=O)CCCCCC(=O)Nc3ccccc3N)cc2CC1=O | . | 0.2 | 2.5 | 0.3 | -10.0[16.7 µM] | .
Cc1cc2nc(-c3ccccc3)c(Cc3cccc(F)c3)n2c(C)c1Br | 0.6 | 10.1 | -12.3 | -7.8 | 2.3 | .
Cc1ccc(-c2nc3cc(C)c(Br)c(C)n3c2Cc2cccc(F)c2)cc1 | 11.0 | 53.6* | -14.8 | 0.9 | -1.3 | .
Cc1ccc(-c2nc3ccc(Cl)cn3c2Cc2cccc(Cl)c2)cc1 | 46.3* | 49.8* | -12.0 | 4.2 | -3.6 | .
CSc1ncccc1C(=O)OCc1ccccc1 | . | ? | -11.9 | 3.5 | -5.4 | 78.0
CSc1ncccc1C(=O)OCc1ccccc1F | -1.4 | 49.8* | . | . | -5.9 | 56.5
C/C=C/c1cnc2c(c1)C(=O)N([C@H](C)CO)C[C@H](C)[C@@H](CN(C)C(=O)C1CCOCC1)O2 | . | -0.8 | . | -2.5 | 12.4[16.7 µM] | .
COc1ccc(S(=O)(=O)N(C)C[C@@H]2OCCCC[C@H](C)Oc3ccc(NC(=O)NC4CCCCC4)cc3C(=O)N([C@@H](C)CO)C[C@H]2C)cc1 | . | -4.5 | -1.8 | -0.4 | -2.3[16.7 µM] | .
CCOC(=O)c1sc(=NC(=O)c2ccc(OC)c(OC)c2)n(C)c1C | 12.5 | 38.2 | 12.3 | -1.9 | -7.9 | 68.1

# (cont.)
Structure | Wnt bcat act | esBAF inh | UUG fidelity | PglD inh | miR-122 sensor | MITF act
CCOC(=O)c1sc(=NC(=O)c2ccccc2)n(C)c1C | 43.6* | 71.4* | -16.6 | . | 4.3 | 67.9
CCOC(=O)c1sc(=NC(=O)c2cccc(OC)c2)n(C)c1C | 33.2* | ? | -3.5 | -2.1 | -1.7 | ?
CCc1ccc(-c2ccc(SCC(=O)NC3CCCC3)nn2)cc1 | 23.7 | 47.2* | -14.7 | -5.0 | -0.8 | .
COc1ccc(-c2ccc(SCC(=O)NC3CCCC3)nn2)cc1 | 10.9 | 32.2 | -8.4 | -2.0 | 2.4 | .
Cc1noc(C)c1NC(=O)Nc1ccc2c(c1)CC(=O)N([C@H](C)CO)C[C@H](C)[C@@H](CN(C)S(=O)(=O)c1cccs1)O2 | . | 3.3 | 3.2 | -0.8 | 3.7[16.7 µM] | .
O=C(Cc1ccncc1)NCC[C@H]1CC[C@H](NC(=O)C2CCC2)[C@@H](CO)O1 | . | 0.4 | . | 2.7 | . | .
Cc1ccc2c(c1)Sc1ccccc1CC2=O | -6.1 | 61.0* | -9.3 | -6.7 | 61.4 | -2.3
O=C1Cc2ccccc2Sc2ccccc21 | . | -4.5 | 0.1 | 1.4 | 7.0 | 6.7
O=[N+]([O-])/C=C/c1c(OCc2ccccc2)ccc2ccccc12 | . | 23.5 | 285.8* | -5.1 | 8.5 | -98.3
O=C(NC1Cc2ccccc2C1)[C@H]1[C@H](CO)[C@H]2Cn3c(cccc3=O)[C@H]2N1C(=O)c1ccccn1 | . | 2.8 | . | 2.1 | 4.0[16.7 µM] | .
Cc1cccc(S(=O)(=O)N2CC[C@@H]3[C@H](CO)Nc4ccc(C#Cc5ccc(F)cc5)cc4[C@@H]32)c1 | . | -1.7 | -4.9 | -0.6 | 9.6[16.7 µM] | .
Cc1ccc2cc(-c3noc(C(C)(C)C)n3)c(=O)[nH]c2c1 | . | 19.0 | -15.2 | -4.9 | 206.0* | 32.2
O=c1c(-c2ccc(F)cc2)coc2c3c(ccc12)OCCO3 | 5.1 | 52.2* | -19.6 | 1.1 | -2.2 | 133.4*
O=S(Cc1ccc(Cl)cc1)CC(O)(c1ccccc1)c1ccccc1 (stereo not drawn) | -14.5 | 3.8 | -20.4 | -2.8 | 146.7* | .
O=S(Cc1ccccc1)CC(O)(c1ccccc1)c1ccccc1 (stereo not drawn) | . | -1.9 | -4.3 | -0.5 | 8.4 | -7.3
O=S(Cc1ccccc1)CC(O)(c1ccc(Cl)cc1)c1ccc(Cl)cc1 (stereo not drawn) | -2.9 | -7.3 | -3.4 | 2.0 | 138.6* | .
NNCCc1ccccc1 | 27.0 | 62.9* | -3.4 | -1.6 | 5.0 | 60.2
O=C(CC(=O)NCCc1ccccc1)NCCc1ccccc1 | -0.1 | -2.0 | -2.5 | 3.1 | -4.8 | -2.2
C[C@H](CO)N1C[C@H](C)[C@H](CN(C)S(=O)(=O)c2ccc(F)cc2)Oc2ccc(NS(=O)(=O)c3ccc(F)cc3)cc2C1=O | . | -0.2 | -0.7 | 5.1 | 6.3[16.7 µM] | .
C[C@H]1CN([C@@H](C)CO)C(=O)CCCn2cc(nn2)CO[C@H]1CN(C)Cc1ccccc1C(F)(F)F | . | 1.8 | . | 1.3 | -1.5[16.7 µM] | .
Cc1cc(C(=O)CSc2ccc(F)cc2)cc(C)c1O | 11.4 | 56.1* | -15.7 | -4.2 | . | 66.4
Clc1cccc(/C=N/Nc2nc(Cl)nc3ccccc23)c1 | 9.9 | 52.2* | 1.6 | -4.5 | 8.1 | .
Fc1ccccc1/C=N/Nc1ncnc2ccccc12 | 19.5 | . | . | . | . | 15.7
Clc1ccc(/C=N/Nc2ncnc3ccccc23)cc1Cl | ? | 74.3* | -1.2 | 3.4 | 6.1 | .

# Grouped by structure: those above containing bromine
Structure | Wnt bcat act | esBAF inh | UUG fidelity | PglD inh | miR-122 sensor | MITF act
Cc1ccc2nc(-c3cccc(Br)c3)c(Cc3ccccn3)n2c1 | 23.9 | 48.0* | -4.2 | -3.2 | -4.6 | .
Clc1ccc(-c2nc3ccc(Br)cn3c2Cc2cccc(Cl)c2)cc1 | 13.3 | ? | -11.3 | 3.4 | 7.1 | .
Cc1ccc(-c2nc3ccc(Br)cn3c2Cc2cccc(Cl)c2)cc1 | 11.5 | 43.4* | -18.1 | 1.8 | -1.7 | .
Cc1cc2nc(-c3ccccc3)c(Cc3cccc(F)c3)n2c(C)c1Br | 0.6 | 10.1 | -12.3 | -7.8 | 2.3 | .
Cc1ccc(-c2nc3cc(C)c(Br)c(C)n3c2Cc2cccc(F)c2)cc1 | 11.0 | 53.6* | -14.8 | 0.9 | -1.3 | .

# Assay outcomes as filed in PubChem.
